Results on 3 molecules are retold here after doi:10.1101/2021.04.11.439324 (bioRxiv, 2021).

Test [1] deals with T1, HSPB1 (S15D, S78D, S82D, I181G, V183G) (UniProt P04792, S15D | S78D | S82D | I181G | V183G). Description: fluorescence polarisation.
For a further test, the target named is DNAJA2 (UniProt O60884). Nature of the test: fluorescence polarisation. For orientation: Fluorescence polarisation rises when a labelled molecule tumbles more slowly, as on binding a larger partner.
Test [2] concerns the target T1, HSPB1 (S15D, S78D, S82D, I181G, V183G). Nature of the test: NMR titration.

Positions count from the first letter of the chain named. Names and notes keep the numbering of the source.

B1: fluorescently tagged tau (tau C291S, C322S, L243C-AF488) (other)
chain: CQTAPVPMPDLKNVKSKIGSTENLKHQPGGGKVQIINKKLDLSNVQSKSGSKDNIKHVPGGGSVQIVYKPVDLSKVTSKSGSLGNIHHKPGGGQVEVKSEKLDFKDRVQSKIGSLDNITHVPGGGNKKIE
modifications: AF488 on L243C
What is called Kd is the equilibrium constant for the complex coming apart. Higher therefore signals lower affinity. As for B1, the Kd in test [1] turned out to be 250 ± 26 µM; with DNAJA2 it was 43 ± 8 µM.

B2: tau^4R P301S mutant (domain or fragment, UniProt P10636-8 244-372, looked up)
chain: QTAPVPMPDLKNVKSKIGSTENLKHQPGGGKVQIINKKLDLSNVQSKCGSKDNIKHVSGGGSVQIVYKPVDLSKVTSKAGSLGNIHHKPGGGQVEVKSEKLDFKDRVQSKIGSLDNITHVPGGGNKKIE
Take B2: in test [2], the binding result is recorded as “binds”.

B3: tau^4R P301L mutant (domain or fragment, UniProt P10636-8 244-372, looked up)
chain: B2 chain with S58L
As for B3, in test [2], the binding result is reported as “binds”.
